US20070275379A1

By UniProt entry, the sequences of proteins in these tests, tags left out. Where a name states a change or a piece, a line headed by the entry shows the natural chain unless it says otherwise.
UniProt Q13519: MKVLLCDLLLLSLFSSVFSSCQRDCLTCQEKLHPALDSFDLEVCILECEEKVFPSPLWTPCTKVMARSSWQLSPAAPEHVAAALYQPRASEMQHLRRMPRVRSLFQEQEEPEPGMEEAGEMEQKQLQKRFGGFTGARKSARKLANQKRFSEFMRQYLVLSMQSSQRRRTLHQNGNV

Legend:
[1] = molecular target: rhesus monkey ORL1 (rhesus monkey); test: saturation radioligand binding, filtration, on membranes of CHO-K1 cells expressing rhesus monkey ORL1
[2] = molecular target: rhesus monkey ORL1 (rhesus monkey); test: cell-based or functional assay

A Kd [1] of 0.027 nM was found for “[125I][Tyr14]nociceptin (from UniProt Q13519 130-146) (peptide)” in this work.
An EC50 of nociceptin-stimulated specific [35S]GTPgammaS binding to membranes [2] of 2.3 nM was found for “nociceptin (from UniProt Q13519 130-146) (peptide)” in this work.
